Test results as given in article PMC8445433, “Broadly directed SARS-CoV-2-specific CD4+ T cell response includes frequently detected peptide specificities within the membrane and nucleoprotein in patients with acute and resolved COVID-19” (PLoS Pathogens, 2021).

By UniProt entry, the sequences of proteins in these tests, tags left out. Residues count along the entry.
UniProt P01920, 33-261: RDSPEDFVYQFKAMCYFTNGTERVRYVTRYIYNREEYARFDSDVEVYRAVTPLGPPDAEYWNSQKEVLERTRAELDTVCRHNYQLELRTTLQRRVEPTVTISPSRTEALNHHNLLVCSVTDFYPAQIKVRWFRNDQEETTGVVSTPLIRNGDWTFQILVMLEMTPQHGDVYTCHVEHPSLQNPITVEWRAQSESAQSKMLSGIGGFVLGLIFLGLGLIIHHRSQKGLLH
UniProt P01903, 26-254 partner: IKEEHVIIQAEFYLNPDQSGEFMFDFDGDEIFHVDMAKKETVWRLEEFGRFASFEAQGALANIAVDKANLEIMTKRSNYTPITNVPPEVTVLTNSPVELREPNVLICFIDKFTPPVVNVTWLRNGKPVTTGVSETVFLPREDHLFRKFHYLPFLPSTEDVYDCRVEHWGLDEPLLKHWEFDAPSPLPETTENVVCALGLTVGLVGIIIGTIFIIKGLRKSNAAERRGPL
UniProt P01911, 30-266: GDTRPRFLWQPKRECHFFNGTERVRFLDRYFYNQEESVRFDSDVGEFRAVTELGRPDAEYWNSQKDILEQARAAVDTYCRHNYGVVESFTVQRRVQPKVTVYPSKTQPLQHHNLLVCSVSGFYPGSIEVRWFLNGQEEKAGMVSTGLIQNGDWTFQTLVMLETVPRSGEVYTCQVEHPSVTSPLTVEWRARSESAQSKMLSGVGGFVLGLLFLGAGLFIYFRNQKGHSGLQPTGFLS
UniProt P79483, 30-266: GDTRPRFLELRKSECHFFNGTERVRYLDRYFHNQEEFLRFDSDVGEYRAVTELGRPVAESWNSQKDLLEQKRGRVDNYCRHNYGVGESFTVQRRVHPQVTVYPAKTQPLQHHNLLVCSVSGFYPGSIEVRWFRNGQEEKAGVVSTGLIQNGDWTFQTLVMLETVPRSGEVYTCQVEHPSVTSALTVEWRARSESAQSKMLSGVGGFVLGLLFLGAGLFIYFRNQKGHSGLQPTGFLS
UniProt Q30154, 30-266: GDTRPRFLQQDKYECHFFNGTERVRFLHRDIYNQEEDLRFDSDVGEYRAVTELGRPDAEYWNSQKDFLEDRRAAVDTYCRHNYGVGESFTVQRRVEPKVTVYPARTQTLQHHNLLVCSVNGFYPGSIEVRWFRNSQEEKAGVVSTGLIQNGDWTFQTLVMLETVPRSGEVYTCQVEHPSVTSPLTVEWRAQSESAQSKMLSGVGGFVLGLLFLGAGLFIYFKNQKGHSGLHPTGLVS

Columns and labels:
Experiment in all cases: biochemical
DQA1*05:01 DQB1*03:0 = DQA1*05:01 DQB1*03:0 (Homo sapiens, UniProt P01909+P01920)
DPA1*01:03 DPB1*04:01 = molecular target: T1, DPA1*01:03 DPB1*04:01 (Homo sapiens, UniProt P04440+P20036); assay type: binding
T1 sequence (P20036 29-260): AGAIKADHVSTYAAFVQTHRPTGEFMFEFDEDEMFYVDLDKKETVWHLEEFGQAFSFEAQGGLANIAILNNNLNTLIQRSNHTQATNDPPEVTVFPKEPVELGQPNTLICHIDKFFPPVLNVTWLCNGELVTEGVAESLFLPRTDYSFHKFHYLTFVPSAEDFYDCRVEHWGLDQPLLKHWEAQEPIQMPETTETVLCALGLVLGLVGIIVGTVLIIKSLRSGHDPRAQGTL
T1 sequence (P04440 30-258): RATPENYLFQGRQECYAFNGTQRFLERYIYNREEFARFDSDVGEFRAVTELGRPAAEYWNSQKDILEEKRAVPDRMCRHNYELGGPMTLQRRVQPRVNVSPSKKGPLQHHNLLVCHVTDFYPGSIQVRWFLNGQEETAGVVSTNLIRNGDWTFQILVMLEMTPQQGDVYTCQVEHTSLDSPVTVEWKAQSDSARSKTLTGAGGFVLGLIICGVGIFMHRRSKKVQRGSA

DRB1*15:01 = DRB1*15:01 (Homo sapiens, UniProt P01903+P01911); assay type: binding
DRB3*01:01 = DRB3*01:01 (Homo sapiens, UniProt P01903+P79483); assay type: binding
DRB5*01:01 = DRB5*01:01 (Homo sapiens, UniProt P01903+Q30154); assay type: binding

Structure (SMILES): CC[C@H](C)[C@H](NC(=O)CNC(=O)[C@H](CC(=O)O)NC(=O)[C@H](CCCCN)NC(=O)[C@H](CC(N)=O)NC(=O)[C@H](C)NC(=O)CNC(=O)[C@H](Cc1ccc(O)cc1)NC(=O)[C@@H]1CCCN1C(=O)[C@@H](N)CC(C)C)C(=O)N[C@H](C(=O)N[C@@H](Cc1c[nH]c2ccccc12)C(=O)N[C@H](C(=O)N[C@@H](C)C(=O)N[C@H](C(=O)O)[C@@H](C)O)C(C)C)[C@@H](C)CC [Ncl_25]
- IC50 (DQA1*05:01 DQB1*03:0): 14.6 µM

Structure (SMILES): CC[C@H](C)[C@H](NC(=O)CNC(=O)[C@H](CC(=O)O)NC(=O)[C@H](CCCCN)NC(=O)[C@@H](N)CC(N)=O)C(=O)N[C@H](C(=O)N[C@@H](Cc1c[nH]c2ccccc12)C(=O)N[C@H](C(=O)N[C@@H](C)C(=O)N[C@H](C(=O)N[C@@H](CCC(=O)O)C(=O)NCC(=O)N[C@@H](C)C(=O)N[C@@H](CC(C)C)C(=O)N[C@@H](CC(N)=O)C(=O)O)[C@@H](C)O)C(C)C)[C@@H](C)CC [Ncl_26]
- IC50 (DQA1*05:01 DQB1*03:0): 4.03 µM

Structure (SMILES): CC(C)C[C@H](NC(=O)[C@H](CCC(N)=O)NC(=O)[C@H](CC(N)=O)NC(=O)[C@H](CC(C)C)NC(=O)[C@H](CCCNC(=N)N)NC(=O)[C@H](CC(=O)O)NC(=O)[C@H](CC(C)C)NC(=O)[C@H](CC(C)C)NC(=O)[C@H](CC(C)C)NC(=O)[C@H](CC(C)C)NC(=O)[C@H](C)NC(=O)[C@H](CC(C)C)NC(=O)[C@H](C)NC(=O)[C@H](C)NC(=O)[C@@H](N)CC(=O)O)C(=O)O [Ncl_44]
- IC50 (DQA1*05:01 DQB1*03:0): 22.5 µM

Structure (SMILES): CC(C)C[C@H](NC(=O)[C@H](CC(N)=O)NC(=O)[C@H](CCCCN)NC(=O)[C@@H](NC(=O)[C@H](CCCNC(=N)N)NC(=O)[C@H](CO)NC(=O)[C@H](Cc1ccc(O)cc1)NC(=O)[C@@H](NC(=O)[C@H](Cc1ccc(O)cc1)NC(=O)[C@H](Cc1ccccc1)NC(=O)[C@H](CO)NC(=O)[C@@H]1CCCN1C(=O)[C@H](CCCCN)NC(=O)[C@@H](NC(=O)[C@@H](N)CC(C)C)C(C)C)C(C)C)C(C)C)C(=O)O [Env_11]
- IC50 (DQA1*05:01 DQB1*03:0): 5.77 µM

Structure (SMILES): CC(C)C[C@H](NC(=O)[C@H](Cc1ccc(O)cc1)NC(=O)[C@H](Cc1ccc(O)cc1)NC(=O)[C@H](Cc1ccccc1)NC(=O)[C@H](Cc1ccc(O)cc1)NC(=O)[C@H](Cc1c[nH]c2ccccc12)NC(=O)[C@H](CCCNC(=N)N)NC(=O)[C@@H]1CCCN1)C(=O)NCC(=O)N[C@H](C(=O)NCC(=O)N1CCC[C@H]1C(=O)N[C@@H](CCC(=O)O)C(=O)N[C@@H](C)C(=O)NCC(=O)O)[C@@H](C)O [Ncl_22]
- IC50 (DQA1*05:01 DQB1*03:0): 1.28 µM

Structure (SMILES): CC[C@H](C)[C@H](NC(=O)[C@H](CCCNC(=N)N)NC(=O)[C@H](CCCNC(=N)N)NC(=O)[C@@H](NC(=O)[C@H](C)NC(=O)[C@H](CCCNC(=N)N)NC(=O)[C@H](CCCNC(=N)N)NC(=O)[C@H](Cc1ccc(O)cc1)NC(=O)[C@@H](N)Cc1ccc(O)cc1)[C@@H](C)O)C(=O)N[C@@H](CCCNC(=N)N)C(=O)NCC(=O)NCC(=O)N[C@@H](CC(=O)O)C(=O)NCC(=O)N[C@@H](CCCCN)C(=O)O [Ncl_P18]
- IC50 (DQA1*05:01 DQB1*03:0): 6.72 µM

Structure (SMILES): CC[C@H](C)[C@H](NC(=O)[C@H](CCC(=O)O)NC(=O)[C@@H](N)CCCCN)C(=O)N[C@H](C(=O)N[C@H](C(=O)N[C@@H](C)C(=O)N[C@H](C(=O)N[C@@H](CO)C(=O)N[C@@H](CCCNC(=N)N)C(=O)N[C@H](C(=O)N[C@@H](CC(C)C)C(=O)N[C@@H](CO)C(=O)N[C@@H](Cc1ccc(O)cc1)C(=O)N[C@@H](Cc1ccc(O)cc1)C(=O)N[C@@H](CCCCN)C(=O)O)[C@@H](C)O)[C@@H](C)O)C(C)C)[C@@H](C)O [Mem_34]
- IC50 (DQA1*05:01 DQB1*03:0): 0.649 µM

Structure (SMILES): CC(C)[C@H](NC(=O)[C@H](CC(N)=O)NC(=O)[C@H](Cc1ccc(O)cc1)NC(=O)[C@H](C)NC(=O)[C@@H](N)CCCCN)C(=O)N[C@H](C(=O)N[C@@H](CCC(N)=O)C(=O)N[C@@H](C)C(=O)N[C@@H](Cc1ccccc1)C(=O)NCC(=O)N[C@@H](CCCNC(=N)N)C(=O)N[C@@H](CCCNC(=N)N)C(=O)NCC(=O)N1CCC[C@H]1C(=O)N[C@@H](CCC(=O)O)C(=O)O)[C@@H](C)O [Ncl_54]
- IC50 (DPA1*01:03 DPB1*04:01): 6.06 µM
- IC50 (DRB1*15:01): 0.988 µM
- IC50 (DRB3*01:01): 7.84 µM
- IC50 (DRB5*01:01): 0.00075 µM
- IC50 (DQA1*05:01 DQB1*03:0): 0.794 µM

Structure (SMILES): CSCC[C@H](NC(=O)[C@H](CCCCN)NC(=O)[C@H](CO)NC(=O)[C@H](CCC(=O)O)NC(=O)[C@H](CC(C)C)NC(=O)[C@H](CCC(N)=O)NC(=O)[C@H](CC(N)=O)NC(=O)[C@H](CC(C)C)NC(=O)[C@H](CCCNC(=N)N)NC(=O)[C@H](CC(=O)O)NC(=O)[C@H](CC(C)C)NC(=O)[C@H](CC(C)C)NC(=O)[C@H](CC(C)C)NC(=O)[C@@H](N)CC(C)C)C(=O)N[C@@H](CO)C(=O)O [Ncl_45]
- IC50 (DQA1*05:01 DQB1*03:0): > 40 µM

Structure (SMILES): CC[C@H](C)[C@H](NC(=O)[C@H](CCCNC(=N)N)NC(=O)[C@H](CC(C)C)NC(=O)[C@H](Cc1c[nH]cn1)NC(=O)CNC(=O)[C@@H](N)CCCNC(=N)N)C(=O)N[C@@H](C)C(=O)NCC(=O)N[C@@H](Cc1c[nH]cn1)C(=O)N[C@@H](Cc1c[nH]cn1)C(=O)N[C@@H](CC(C)C)C(=O)NCC(=O)N[C@@H](CCCNC(=N)N)C(=O)N[C@@H](CS)C(=O)N[C@@H](CC(=O)O)C(=O)O [Mem_30]
- IC50 (DQA1*05:01 DQB1*03:0): 15.1 µM

Structure (SMILES): CC(C)C[C@H](NC(=O)[C@H](C)NC(=O)[C@@H](NC(=O)[C@H](Cc1ccccc1)NC(=O)[C@H](Cc1c[nH]c2ccccc12)NC(=O)[C@@H](N)CO)[C@@H](C)O)C(=O)N[C@H](C(=O)N[C@@H](CCC(N)=O)C(=O)N[C@@H](Cc1c[nH]cn1)C(=O)NCC(=O)N[C@@H](CCCCN)C(=O)N[C@@H](CCC(=O)O)C(=O)N[C@@H](CC(=O)O)C(=O)N[C@@H](CC(C)C)C(=O)N[C@@H](CCCCN)C(=O)O)[C@@H](C)O [Ncl_11]
- IC50 (DQA1*05:01 DQB1*03:0): 1.3 µM

Structure (SMILES): CC[C@H](C)[C@H](NC(=O)[C@H](CCC(N)=O)NC(=O)[C@H](CC(=O)O)NC(=O)[C@@H](N)CC(=O)O)C(=O)NCC(=O)N[C@@H](Cc1ccc(O)cc1)C(=O)N[C@@H](Cc1ccc(O)cc1)C(=O)N[C@@H](CCCNC(=N)N)C(=O)N[C@@H](CCCNC(=N)N)C(=O)N[C@@H](C)C(=O)N[C@H](C(=O)N[C@@H](CCCNC(=N)N)C(=O)N[C@@H](CCCNC(=N)N)C(=O)N[C@H](C(=O)N[C@@H](CCCNC(=N)N)C(=O)O)[C@@H](C)CC)[C@@H](C)O [Ncl_P17]
- IC50 (DQA1*05:01 DQB1*03:0): 5.07 µM

Structure (SMILES): CC[C@H](C)[C@H](NC(=O)[C@H](Cc1c[nH]cn1)NC(=O)[C@H](CCCCN)NC(=O)[C@H](CC(N)=O)NC(=O)[C@H](CC(C)C)NC(=O)[C@H](CC(C)C)NC(=O)[C@@H](NC(=O)[C@@H](NC(=O)[C@H](CCC(N)=O)NC(=O)[C@H](CC(=O)O)NC(=O)[C@H](CCCCN)NC(=O)[C@@H](N)Cc1ccccc1)C(C)C)[C@@H](C)CC)C(=O)N[C@@H](CC(=O)O)C(=O)N[C@@H](C)C(=O)N[C@@H](Cc1ccc(O)cc1)C(=O)O [Ncl_70]
- IC50 (DQA1*05:01 DQB1*03:0): 33.7 µM
